Results: ChEMBL document CHEMBL3085623, “Oridonin ring A-based diverse constructions of enone functionality: identification of novel dienone analogues effective for highly aggressive breast cancer by inducing apoptosis” (J Med Chem, 2013)

Test system: NCI/ADR-RES
Assay: Growth inhibition of human MCF7/ADR cells after 48 hrs
Type: functional, cell-based

| SMILES | growth inhibition (GI) |
| --- | --- |
| C=C1C(=O)[C@]23[C@H](O)[C@H]1CC[C@H]2[C@@]12CO[C@]3(O)[C@@H](O)[C@@H]1C(C)(C)C=CC2=O | Dose-dependent effect |
| C=C1C(=O)[C@@]23[C@@H]4OC(C)(C)O[C@]25OC[C@]2(C(=O)C=CC(C)(C)[C@H]2[C@@H]5O)[C@@H]3CC[C@@H]14 | Dose-dependent effect |
| C=C1C(=O)[C@@]23[C@@H]4OC(C)(C)O[C@]25OC[C@]2(C(=O)C(C=O)=CC(C)(C)[C@H]2[C@@H]5O)[C@@H]3CC[C@@H]14 | Dose-dependent effect |
| C=C1C(=O)[C@@]23[C@@H]4OC(C)(C)O[C@]25OC[C@]2(C=CC(=O)C(C)(C)[C@H]2[C@@H]5O)[C@@H]3CC[C@@H]14 | Dose-dependent effect |
